Sequences of proteins named here, by UniProt entry; tags and fusion partners are left off.
UniProt P23977, whole entry: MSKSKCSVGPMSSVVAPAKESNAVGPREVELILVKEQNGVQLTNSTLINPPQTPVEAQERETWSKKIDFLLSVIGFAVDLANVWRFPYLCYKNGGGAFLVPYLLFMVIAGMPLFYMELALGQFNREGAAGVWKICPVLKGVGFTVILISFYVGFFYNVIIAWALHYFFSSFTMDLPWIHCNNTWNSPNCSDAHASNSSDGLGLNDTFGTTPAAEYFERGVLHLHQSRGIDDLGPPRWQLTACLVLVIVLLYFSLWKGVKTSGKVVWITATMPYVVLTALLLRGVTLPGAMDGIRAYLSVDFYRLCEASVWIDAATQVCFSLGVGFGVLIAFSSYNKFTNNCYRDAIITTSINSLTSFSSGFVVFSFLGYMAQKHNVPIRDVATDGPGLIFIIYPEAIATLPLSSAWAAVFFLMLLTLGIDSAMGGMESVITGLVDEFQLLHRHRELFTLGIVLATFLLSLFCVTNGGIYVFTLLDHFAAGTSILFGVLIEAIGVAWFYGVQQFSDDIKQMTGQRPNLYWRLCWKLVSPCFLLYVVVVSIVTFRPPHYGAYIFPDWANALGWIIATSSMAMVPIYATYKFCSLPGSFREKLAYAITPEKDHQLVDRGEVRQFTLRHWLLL
UniProt Q60492, whole entry: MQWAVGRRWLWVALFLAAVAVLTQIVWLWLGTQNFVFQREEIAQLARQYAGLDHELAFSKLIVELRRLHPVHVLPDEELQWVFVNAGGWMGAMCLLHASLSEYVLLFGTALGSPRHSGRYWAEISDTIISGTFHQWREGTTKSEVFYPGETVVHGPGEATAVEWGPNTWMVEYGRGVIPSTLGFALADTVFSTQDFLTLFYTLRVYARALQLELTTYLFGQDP
UniProt P31652, whole entry: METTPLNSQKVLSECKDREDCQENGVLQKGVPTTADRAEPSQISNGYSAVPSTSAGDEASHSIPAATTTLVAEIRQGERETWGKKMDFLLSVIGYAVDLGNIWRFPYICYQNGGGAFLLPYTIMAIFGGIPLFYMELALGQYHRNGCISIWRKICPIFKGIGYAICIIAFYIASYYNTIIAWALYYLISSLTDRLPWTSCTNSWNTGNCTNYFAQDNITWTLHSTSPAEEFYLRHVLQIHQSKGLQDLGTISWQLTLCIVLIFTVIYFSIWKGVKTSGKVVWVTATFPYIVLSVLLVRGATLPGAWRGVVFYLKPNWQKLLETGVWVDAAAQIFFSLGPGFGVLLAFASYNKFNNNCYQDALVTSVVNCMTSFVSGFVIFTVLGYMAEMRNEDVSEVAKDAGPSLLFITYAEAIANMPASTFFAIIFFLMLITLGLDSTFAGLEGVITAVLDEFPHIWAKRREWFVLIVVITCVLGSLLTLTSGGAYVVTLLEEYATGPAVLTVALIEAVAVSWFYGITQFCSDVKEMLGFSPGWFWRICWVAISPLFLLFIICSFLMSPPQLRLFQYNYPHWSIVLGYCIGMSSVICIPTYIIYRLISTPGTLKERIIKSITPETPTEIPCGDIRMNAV

In US11365195B2, “Atypical inhibitors of monoamine transporters; method of making; and use thereof” (THE UNITED STATES OF AMERICA, AS REPRESENTED BY THE …, priority 2017, dated 2022):

Key:
DAT = DAT (Rattus norvegicus, UniProt P23977); assay: DAT radioligand binding in rat striatum ([3H]-WIN35,428 competition); details: ratio of SERT Ki to DAT Ki; tested form: dihydrochloride monohydrate
σ1R = σ1R (Cavia porcellus, UniProt Q60492); assay: σ1R radioligand binding in guinea pig cortex ([3H]-(+)-Pentazocine competition); details: tested form: dihydrochloride monohydrate
SERT = SERT (Rattus norvegicus, UniProt P31652); assay: SERT radioligand binding in rat midbrain ([3H]-Citalopram competition); details: read-out: SERT (rat mid-brain-stem) Ki ± SEM, rat midbrain/brain stem membranes, mean ± SEM, tested form: dihydrochloride monohydrate

Fc1ccc(C(SCCNC2CCN(Cc3cc4ccccc4o3)CC2)c2ccc(F)cc2)cc1
SERT/DAT (DAT): 5.76 | σ1/DAT (σ1R; ratio of σ1 to DAT affinity values): 1.71 | σ1/SERT (σ1R; ratio of σ1 to SERT affinity values): 0.30 | Kd (σ1R; read-out: σ1 (Guinea Pig Cortex) Kd ± SEM, guinea pig cortex membranes, [3H]-(+)-Pentazocine, mean ± SEM): 205 nM | Ki (SERT): 691 nM
